Consider one molecule from patent publication US10570379B2, “Polypeptides for carbon-carbon bond formation and uses thereof” (INVISTA North America S.à.r.l., priority 2015, dated 2020).

The series is described as follows: Solubility of the expressed protein (Table 3). To be noted: protein expressed in E. coli.

B1: Bdigene 237: Acetate/Propionate CoA-transferase (YdiF) from Clostridium propionicum, Uniprot Q9L3F7, SEQ ID NO: 1 (protein, listed as Clostridium propionicum)
chain: MRKVPIITADEAAKLIKDGDTVTTSGFVGNAIPEALDRAVEKRFLETGEPKNITYVYCGSQGNRDGRGAEHFAHEGLLKRYIAGHWATVPALGKMAMENKMEAYNVSQGALCHLFRDIASHKPGVFTKVGIGTFIDPRNGGGKVNDITKEDIVELVEIKGQEYLFYPAFPIHVALIRGTYADESGNITFEKEVAPLEGTSVCQAVKNSGGIVVVQVERVVKAGTLDPRHVKVPGIYVDYVVVADPEDHQQSLDCEYDPALSGEHRRPEVVGEPLPLSAKKVIGRRGAIELEKDVAVNLGVGAPEYVASVADEEGIVDFMTLTAESGAIGGVPAGGVRFGASYNADALIDQGYQFDYYDGGGLDLCYLGLAECDEKGNINVSRFGPRIAGCGGFINITQNTPKVFFCGTFTAGGLKVKIEDGKVIIVQEGKQKKFLKAVEQITFNGDVALANKQQVTYITERCVFLLKEDGLHLSEIAPGIDLQTQILDVMDFAPIIDRDANGQIKLMDAALFAEGLMGLKEMKS
In the case of B1, the Solubility entry is “✓”.
